By UniProt entry, the sequences of proteins in these tests, tags left out. Residues count along the entry.
UniProt P47895, 2-512 limits assumed: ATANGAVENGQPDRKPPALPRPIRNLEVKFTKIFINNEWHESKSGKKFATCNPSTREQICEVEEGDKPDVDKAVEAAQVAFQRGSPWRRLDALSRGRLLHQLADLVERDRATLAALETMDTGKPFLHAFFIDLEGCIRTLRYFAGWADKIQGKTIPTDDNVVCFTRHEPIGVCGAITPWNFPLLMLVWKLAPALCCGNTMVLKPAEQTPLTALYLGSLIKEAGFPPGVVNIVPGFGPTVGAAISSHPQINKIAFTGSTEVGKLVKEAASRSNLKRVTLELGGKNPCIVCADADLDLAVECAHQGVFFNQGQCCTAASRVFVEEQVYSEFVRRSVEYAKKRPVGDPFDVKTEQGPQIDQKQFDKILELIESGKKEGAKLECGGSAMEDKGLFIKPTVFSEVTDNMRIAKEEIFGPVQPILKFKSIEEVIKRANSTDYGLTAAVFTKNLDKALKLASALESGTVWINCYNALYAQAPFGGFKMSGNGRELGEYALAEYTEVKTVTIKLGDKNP

In PMC7835878, “A Selective Competitive Inhibitor of Aldehyde Dehydrogenase 1A3 Hinders Cancer Cell Growth, Invasiveness and Stemness In Vitro” (Cancers, 2021):

Biological target: Aldehyde dehydrogenase 1A3 (ALDH1A3) (Homo sapiens, UniProt P47895)
Test: X-ray co-crystal structure ([…] Å) plus enzyme inhibition kinetics on recombinant human ALDH1A3 (IC50 […])

Work on `N#Cc1cccc(-c2ccc3nc(-c4ccccc4)cn3c2)c1` yielded a Ki of 3.7 µM.
